According to PubChem BioAssay AID521 (Sanford-Burnham Center for Chemical Genomics, 2006):
The list shows a part of the results, in another mix than the full data. The source made the active and inactive calls. No stated cut-off is given here; in the data, active means inhibition above about 50%; inconclusive means no clear call, values can overlap the other calls; inactive means below that.

By UniProt entry, the sequences of proteins in these tests, tags left out.
UniProt P35236, whole entry: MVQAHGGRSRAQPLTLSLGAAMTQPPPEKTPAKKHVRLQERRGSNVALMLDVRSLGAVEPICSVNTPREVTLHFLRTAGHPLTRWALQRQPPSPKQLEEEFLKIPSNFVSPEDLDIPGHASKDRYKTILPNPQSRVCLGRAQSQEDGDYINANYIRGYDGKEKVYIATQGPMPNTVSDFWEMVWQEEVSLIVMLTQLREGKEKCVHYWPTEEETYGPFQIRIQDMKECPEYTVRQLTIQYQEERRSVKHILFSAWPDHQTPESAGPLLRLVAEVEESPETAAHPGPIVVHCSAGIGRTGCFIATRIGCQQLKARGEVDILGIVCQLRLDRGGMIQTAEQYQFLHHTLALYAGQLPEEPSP

What follows are compounds tested against Tyrosine-protein phosphatase non-receptor type 7 (Homo sapiens) (UniProt P35236) (assay: HePTP tyrosine phosphatase activity blockers – biochemical, absorbance, leukemia target, primary screen (AID 521;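 further: plate controls were vehicle for no effect and reference inhibitor for full effect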)). Conditions: recombinant HePTP phosphatase activity, OD absorbance; at 20 µM; active compounds read high.

Compound	inhibition
N/C(=N\O)c1c(N)no[n+]1[O-]	inactive: 4.5%
CCC(CO)(C(=O)OC1CN2CCC1CC2)c1ccccc1 (configuration not stated)	inactive: 4.2%
CCOc1ncccc1C(=O)NCC1(N2CCOCC2)CCCCC1	inactive: 6.4%
Fc1ccccc1NC1CCN(Cc2ccccc2)CC1	inactive: 7%
COc1ccc(NC2CCN(CCc3ccccc3)CC2)c(OC)c1	inactive: 9.8%
O=C(OC1CN2CCC1CC2)C1c2ccccc2Oc2ccccc21 (configuration not stated)	inactive: 11.2%
N#CC1(Nc2ccccc2)CCN(CCc2ccccc2)CC1	inactive: 1.5%
